In patent US8790889B2, “Neuronal stimulation” (The University of Queensland, priority 2009, dated 2014):

Test system: hippocampal precursors
Assay: Slice-sphere assay (hippocampal organotypic slices, then neurosphere culture)
Format: cell-based, rat
Details: slices treated at 100 μM
Experimental: Seven day-old Wistar pups were sacrificed under isoflurane-induced anaesthesia, and the brains were isolated and placed in ice-cold Ringer's solution (NaCl, 118 mM; […] The brain was bisected along the sagittal plane and the hippocampi were separated from the overlying cortex. The hippocampi were cut into transverse slices of 300 μm thickness using a tissue slicer (Stoelting, Wood Dale, Ill.). 6-7 slices were then transferred onto a single 0.4 μm Millicell-CM membrane filter (Millipore), and the filters were placed in a 6-well plate containing 1 ml of serum-free NeuroCult NSC basal medium with NeuroCult proliferation supplements (StemCell Technologies) and 2% bovine serum albumin (Invitrogen). D-glucose (Sigma-Aldrich) was added to the medium to a final concentration of 5 mM. Four filters, each containing 6-7 hippocampal slices, were generated from a single animal. Plates were incubated at 37° C. in a humidified 5% CO2 incubator and the slices were cultured for 6 days. To assess the influence of specific compounds on hippocampal precursor proliferation in the slice culture, compounds were added to the complete medium at the doses described below. Two filters were treated with the compounds for each dose per experiment. […] The total number of viable cells in an aliquot was counted on a haemocytometer based on the exclusion of 0.08% trypan blue (Sigma-Aldrich). […]

CCOc1ccccc1OC(c1ccccc1)C1CNCCO1 (stereo not shown) [reboxetine]
increase in neurosphere frequency / precursor activity: > 2.5 fold
